Experiment: Plasma concentrations of tamoxifen and its metabolites (HPLC) in women with breast cancer taking tamoxifen, by UGT2B7 genotype and CYP2D6 score
Text: Patients. […] Subjects for the registry were recruited from the Breast Oncology Program at the University of Michigan Comprehensive Cancer Center and the Indiana University Cancer Center. […] Patients were enrolled after they had completed all primary surgery, radiation, and adjuvant chemotherapy. Specimens and data from this registry has been sed for several other studies, as reported previously,[16],[6],[17].
Study design. […] At the indicated time points, medical histories, including a comprehensive list of current medications, were obtained, and blood samples (5 mL) were drawn. […]
UGT 2B7 genotyping. […] UGT2B7 codon 268 genotypes were determined by real-time PCR assays using the TaqMan Drug Metabolism Genotyping Assay C—32449742—20 (Applied Biosystems, Foster City, Calif.) in the ABI 7900HT sequence detection system equipped with an autoloader in the Functional Genomics Core Facility at the Penn State College of Medicine. […]
CYP2D6 Gene Score. […] CYP2D6 alleles associated with reduced enzyme activity (e.g. *9,*10, *17, *29, *37, *41, *45, *46) were scored as 0.5.
CYP2D6 Inhibition Factor and CYP2D6 Activity Score. […] The CYP2D6 Activity Score is expressed as the product of multiplying the CYP2D6 Gene Score by the Inhibitor factor, which is defined in the following equation: activity score=(gene score×inhibition factor), […]

- Association of plasma concentration with UGT2B7 genotype (FIG. 1, P<0.05 considered significant): not significantly associated
- Mean plasma concentration, percent higher in *2/*2 group than *1/*1 group (UGT2B7 *2/*2 vs *1/*1 (FIG. 1B), not statistically significant): 22%
Substance: 4-hydroxytamoxifen [4-hydroxy-tamoxifen]
